The record followed here is ChEMBL document CHEMBL5726080, “Substituted piperidine compounds and their use as orexin receptor modulators” (2017).

The assay in a line: Receptor Radioligand Binding Studies: Human Embryonic Kidney 293 cells (HEK293) stably expressing rat orexin 1 receptor (Genebank accession number NM_001525) or Chinese ovary cells (CHO) stably expressing human orexin 1 receptor (Genebank accession number NM_001526) were grown to confluency in DMEM (Hyclone, cat #SH30022), 10% FBS, 1×Pen/Strep, 1× sodium pyruvate, 10 mM HEPES, 600 μg/mL G418 and DMEM/F12 (Gibco, Cat #11039), 10% FBS, 1×Pen/Strep, 600 μg/mL G418 media, respectively on 150 cm2 tissue culture plates, washed with 5 mM EDTA in PBS (HyClone Dulbecco's Phosphate Buffered Saline 1× with Calcium and Magnesium, Cat #SH30264.01, hereafter referred to simply as PBS) and scraped into 50 ml tubes. After centrifugation (2K×G, 5 min at 4° C.), the supernatant was aspirated and the pellets frozen and stored at −80° C. Cells were resuspended in PBS in the presence of 1 tablet of protease inhibitor cocktail (Roche, Cat. #11836145001) per 50 mL. Each cell pellet from a 15 cm plate was resuspended in 10 mL, stored on ice, and homogenized for 45 sec prior to addition to the reactions. […].

As for `Cc1cnc(C(=O)N2CCC[C@@H](N(C)c3nc4ccccc4o3)[C@@H]2C)c(-n2nccn2)c1` (relative stereo), the inhibition constant Ki was determined as 2500 nM.
